This passage reports IC50 results from ChEMBL document CHEMBL2086338, “Design, synthesis, and evaluation of 2-substituted ethenesulfonic acid ester derivatives as protein tyrosine phosphatase 1B inhibitors” (Eur J Med Chem, 2012).

In the assay the target is T1, Tyrosine-protein phosphatase non-receptor type 1 (Homo sapiens, UniProt P18031).
T1 sequence (P18031 whole entry): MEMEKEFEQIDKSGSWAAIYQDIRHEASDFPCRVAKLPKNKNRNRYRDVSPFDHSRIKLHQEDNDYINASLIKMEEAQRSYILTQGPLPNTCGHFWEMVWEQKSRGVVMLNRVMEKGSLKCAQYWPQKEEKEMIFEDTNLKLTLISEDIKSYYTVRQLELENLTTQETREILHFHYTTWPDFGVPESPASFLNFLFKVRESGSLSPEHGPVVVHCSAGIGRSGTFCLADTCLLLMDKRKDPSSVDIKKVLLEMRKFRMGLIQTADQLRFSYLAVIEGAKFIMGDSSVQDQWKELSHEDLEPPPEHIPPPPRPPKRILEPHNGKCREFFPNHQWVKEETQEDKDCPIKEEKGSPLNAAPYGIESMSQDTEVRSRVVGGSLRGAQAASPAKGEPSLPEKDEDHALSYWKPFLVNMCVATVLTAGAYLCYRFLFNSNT
The experiment in a line: Inhibition of human recombinant PTP1B assessed as inhibition of hydrolysis of […] after 10 mins by spectrophotometry.

Each structure is given as a SMILES string.

As for `CNC(=O)C1Cc2ccc(NS(=O)(=O)O)cc2CN1C(=O)CCc1cccc(NS(=O)(=O)O)c1` (stereo unspecified), the IC50 was 4.8 µM.

One may read the IC50 as the concentration that gives 50% inhibition.
